Test results as given in ChEMBL document CHEMBL1123007, “New antiarrhythmic agents. N-aryl-8-pyrrolizidinealkanamides” (J Med Chem, 1985).

Test: Ratio of LD50 to ED50 evaluated for its antiarrhythmic potency
Format: functional, Heart

**Q.** Which Ratio does the source give for `CCN(CC)CC(=O)Nc1c(C)cccc1C` [LIDOCAINE] here?
**A.** 8.21
